Laboratory results taken from US6716960B2, “Mch3, a novel apoptotic protease, nucleic acids encoding and methods of use” (Idun Pharmaceuticals, Inc., priority 1995, dated 2004).

Molecular target: T1, CPP32 (Homo sapiens, UniProt P42574)
T1 construct: CPP32 is cleaved at Asp28 and Asp175 to generate two polypeptides of molecular masses of 17 kDa (p17) and 12 kDa (p12); GST (N, cleaved yes); made in house; host or cells: E. coli; bacterial lysates
T1 sequence (P42574 29-175 limits assumed): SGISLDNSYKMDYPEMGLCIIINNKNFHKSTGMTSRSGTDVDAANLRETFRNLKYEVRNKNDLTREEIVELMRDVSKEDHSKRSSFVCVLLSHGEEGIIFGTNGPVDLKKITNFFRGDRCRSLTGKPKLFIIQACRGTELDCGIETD
T1 sequence (P42574 176-277 limits assumed): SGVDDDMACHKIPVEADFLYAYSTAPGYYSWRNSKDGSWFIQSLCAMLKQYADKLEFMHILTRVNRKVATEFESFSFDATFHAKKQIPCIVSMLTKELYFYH
Test: Continuous fluorometric assay of recombinant CPP32 with DEVD-AMC substrate
Format: biochemical

CC(=O)N[C@@H](CC(=O)O)C(=O)N[C@@H](CCC(=O)O)C(=O)N[C@H](C(=O)N[C@H](C=O)CC(=O)O)C(C)C [DEVDaldehyde, DEVD-CHO]
Ki: 0.59 nM
